The target of this experiment is T1, rNav1.2 α-subunit (Rattus norvegicus, UniProt P04775).
T1 construct: host or cells: CHL 1610 (Chinese hamster lung)
The class given is cell-based. To be noted: read-out: IC50, inhibition of ATX-induced sodium influx (95% CI).

Sequences of proteins named here, by UniProt entry; tags and fusion partners are left off.
UniProt P04775, whole entry: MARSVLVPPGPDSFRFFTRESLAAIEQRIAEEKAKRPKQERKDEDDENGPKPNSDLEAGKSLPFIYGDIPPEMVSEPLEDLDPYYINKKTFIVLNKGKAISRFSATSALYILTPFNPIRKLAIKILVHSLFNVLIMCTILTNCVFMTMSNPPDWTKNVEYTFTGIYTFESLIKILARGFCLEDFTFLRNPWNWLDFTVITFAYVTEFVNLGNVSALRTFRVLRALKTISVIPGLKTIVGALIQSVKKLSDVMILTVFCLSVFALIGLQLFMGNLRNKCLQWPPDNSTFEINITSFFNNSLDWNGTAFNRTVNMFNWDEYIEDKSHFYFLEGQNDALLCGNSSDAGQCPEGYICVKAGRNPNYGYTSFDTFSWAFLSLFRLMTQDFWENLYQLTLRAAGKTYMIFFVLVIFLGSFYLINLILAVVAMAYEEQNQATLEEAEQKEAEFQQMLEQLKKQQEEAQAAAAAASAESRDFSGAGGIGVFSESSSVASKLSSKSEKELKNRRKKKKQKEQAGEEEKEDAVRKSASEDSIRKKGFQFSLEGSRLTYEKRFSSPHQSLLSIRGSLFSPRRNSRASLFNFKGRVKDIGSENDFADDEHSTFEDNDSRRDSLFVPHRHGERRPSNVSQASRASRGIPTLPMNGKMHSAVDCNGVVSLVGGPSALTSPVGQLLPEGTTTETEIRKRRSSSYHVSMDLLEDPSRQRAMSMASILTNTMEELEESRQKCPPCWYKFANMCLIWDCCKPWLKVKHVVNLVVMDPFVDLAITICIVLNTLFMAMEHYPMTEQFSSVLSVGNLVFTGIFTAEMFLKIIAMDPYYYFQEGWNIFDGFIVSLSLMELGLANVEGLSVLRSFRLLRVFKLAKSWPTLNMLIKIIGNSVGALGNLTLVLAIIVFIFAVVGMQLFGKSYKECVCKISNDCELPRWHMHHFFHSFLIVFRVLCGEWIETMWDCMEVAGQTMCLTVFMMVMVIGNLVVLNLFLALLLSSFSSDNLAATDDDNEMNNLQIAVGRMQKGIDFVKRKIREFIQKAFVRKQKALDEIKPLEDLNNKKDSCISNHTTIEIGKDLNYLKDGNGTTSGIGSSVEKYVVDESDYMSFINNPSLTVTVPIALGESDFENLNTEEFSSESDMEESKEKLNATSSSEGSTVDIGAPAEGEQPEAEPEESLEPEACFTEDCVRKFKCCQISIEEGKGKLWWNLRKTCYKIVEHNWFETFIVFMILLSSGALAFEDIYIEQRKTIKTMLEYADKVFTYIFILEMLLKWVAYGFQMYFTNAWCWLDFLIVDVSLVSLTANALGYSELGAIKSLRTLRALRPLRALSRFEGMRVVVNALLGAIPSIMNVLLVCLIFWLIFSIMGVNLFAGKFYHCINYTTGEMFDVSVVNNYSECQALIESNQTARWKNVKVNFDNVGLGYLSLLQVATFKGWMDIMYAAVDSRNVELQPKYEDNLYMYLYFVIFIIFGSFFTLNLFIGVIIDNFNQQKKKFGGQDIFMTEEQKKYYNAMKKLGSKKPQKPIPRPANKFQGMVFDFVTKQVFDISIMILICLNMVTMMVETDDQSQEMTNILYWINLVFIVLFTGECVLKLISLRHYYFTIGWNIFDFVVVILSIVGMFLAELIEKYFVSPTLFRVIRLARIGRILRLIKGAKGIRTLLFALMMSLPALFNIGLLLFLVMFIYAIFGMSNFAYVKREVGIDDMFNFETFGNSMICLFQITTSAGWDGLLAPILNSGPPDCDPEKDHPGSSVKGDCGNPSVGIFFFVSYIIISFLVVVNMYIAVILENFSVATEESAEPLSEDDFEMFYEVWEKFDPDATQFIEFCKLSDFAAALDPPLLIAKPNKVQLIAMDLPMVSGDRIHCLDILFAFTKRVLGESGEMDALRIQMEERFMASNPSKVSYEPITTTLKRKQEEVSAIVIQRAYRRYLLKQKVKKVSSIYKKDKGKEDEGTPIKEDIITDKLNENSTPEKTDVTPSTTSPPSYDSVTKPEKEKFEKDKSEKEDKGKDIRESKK

The structures appear in SMILES notation.

As usually defined, the IC50 is the concentration at which inhibition is half-maximal. As to `NC1=N[C@H](O)[C@H]2[C@H]3O[C@]4(O)O[C@@H]([C@@H](O)[C@@]2(N1)[C@@H]4O)[C@]3(O)CO` [TTX, tetrodotoxin, reference compound], the concentration for half-maximal inhibition (IC50) is 14.8 nM.

The values above are taken from article PMC3009643 (BMC Neuroscience, 2010).
